Protein sequences, listed by entry. Tags and fused reporters are not part of them. Residues count along the entry.
UniProt Q30Z34, 1-427: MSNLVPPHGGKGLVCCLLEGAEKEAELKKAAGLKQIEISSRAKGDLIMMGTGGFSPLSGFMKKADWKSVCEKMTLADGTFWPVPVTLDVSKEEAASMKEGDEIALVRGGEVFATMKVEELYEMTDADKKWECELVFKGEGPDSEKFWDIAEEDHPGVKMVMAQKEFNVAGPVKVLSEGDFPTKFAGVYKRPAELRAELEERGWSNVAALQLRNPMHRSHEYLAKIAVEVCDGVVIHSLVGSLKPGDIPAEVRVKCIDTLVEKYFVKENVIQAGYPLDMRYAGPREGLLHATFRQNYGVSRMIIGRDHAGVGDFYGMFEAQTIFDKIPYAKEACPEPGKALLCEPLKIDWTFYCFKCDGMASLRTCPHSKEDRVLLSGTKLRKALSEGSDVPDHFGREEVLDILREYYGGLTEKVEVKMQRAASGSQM

According to article PMC9723548, “Sulfate adenylyl transferase kinetics and mechanisms of metabolic inhibitors of microbial sulfate respiration” (ISME Communications, 2021):

Target: sulfate adenylyl transferase (Sat) / ATP sulfurylase (Oleidesulfovibrio alaskensis, UniProt Q30Z34)
Assay: pyrophosphate accumulation, modified molybdenum blue assay
Details: read-out: KM (mM) / KI-Varied ATP; alternative substrate in place of sulfate; co-substrate ATP

Compound: O=[As](O)(O)O
- Km: 0.0617 mM

Compound: O=P(O)(O)F
- Km: 1.44 mM
